This is an account of results in PubChem BioAssay (NCATS).

Amino acid sequences for entries named in this document (tags omitted).
UniProt P24462, whole entry, looked up: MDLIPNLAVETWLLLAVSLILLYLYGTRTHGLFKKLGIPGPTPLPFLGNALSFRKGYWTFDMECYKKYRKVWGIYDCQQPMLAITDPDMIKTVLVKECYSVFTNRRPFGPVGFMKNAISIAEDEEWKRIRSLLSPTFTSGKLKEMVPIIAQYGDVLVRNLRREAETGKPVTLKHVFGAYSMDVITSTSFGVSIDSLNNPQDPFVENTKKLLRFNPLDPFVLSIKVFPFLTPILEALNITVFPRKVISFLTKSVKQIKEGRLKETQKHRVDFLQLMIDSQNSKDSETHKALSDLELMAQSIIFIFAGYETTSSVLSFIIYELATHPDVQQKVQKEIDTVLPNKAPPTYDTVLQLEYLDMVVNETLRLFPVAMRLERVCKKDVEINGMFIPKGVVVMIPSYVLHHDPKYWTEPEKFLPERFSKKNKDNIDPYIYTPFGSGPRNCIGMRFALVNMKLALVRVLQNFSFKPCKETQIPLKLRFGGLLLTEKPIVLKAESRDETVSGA

The entries are a selection whose mix differs from that of the whole data set. Records with an inconclusive call do not appear. Activity calls are given as the source filed them. Calls follow the shape of the dose curve; as a rule, active = well fitted curve in the direction sought with a large enough effect; inconclusive = small, poorly fitted or top-dose-only effect, or another doubt; inactive = no such curve, though single readings can be large; an effect the other way counts as inactive or inconclusive.

Assay [1] can be described thus: Cellular viability qHTS for adrenocortical cancer (ACC) cell line SW-13 (AID 1963989).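 Also: cells grown in serum-free medium with ITS supplement; % is scaled to controls: 0 for no effect and ±100 for the full control effect; nearly all actives have a fitted effect of over 65% in size.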 Particulars: SW-13 ACC cells viability, CellTiter-Glo, 48 h; hits give low values.
A short description of assay [2]: Cellular viability qHTS for adrenocortical cancer (ACC) cell line NCI-H295R (AID 1963990). Also: nearly all actives have a fitted effect of over 60% in size. Also: potency is read from the fitted curve at half-maximal effect. The settings on record: CellTiter-Glo ATP luminescence, 48 h; series mostly up to 46.1 µM. (Quantitative high-throughput screening tests each substance at several concentrations.)
In assay [3] the target is Cytochrome P450 3A7 (Homo sapiens) (UniProt P24462). The experiment in a line: Cytochrome P450 family 3 subfamily A member 7 (CYP3A7) small molecule antagonists: luciferase qHTS assay (AID 1963596; also: nearly all actives have a fitted effect of over 40% in size; also: potency is read from the fitted curve at half-maximal effect). Particulars: P450-Glo CYP3A7 enzyme luminescence, 1 h; series mostly up to 57.4 µM. An outline of the steps:
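Recombinant CYP3A7 P450-Glo luminescent assay: enzyme-proluciferin substrate mix preincubated with compound 10 min at room temperature, reaction started with NADPH regeneration system for 1 h. Luciferin detected by luminescence; ketoconazole as positive control.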

Assay [4] is described as follows: Viability qHTS for spleen associated tyrosine kinase inhibitor (SYKi) naive MV4-11 cells (AID 1963823). Also: nearly all actives have a fitted effect of over 40% in size. Also: potency is read from the fitted curve at half-maximal effect. The settings on record: MV4-11 AML viability, CellTiter-Glo luminescence, 72 h; series mostly up to 45 µM.
Assay [5] can be described thus: Viability qHTS for spleen associated tyrosine kinase inhibitor (SYKi) drug resistant MV4-11 cells (AID 1963824). Also: nearly all actives have a fitted effect of over 35% in size. Also: potency is read from the fitted curve at half-maximal effect. Particulars: SYKi-resistant MV4-11 viability, CellTiter-Glo, 72 h; series mostly up to 45 µM. The procedure, abridged:
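SYK-inhibitor-resistant MV4-11 AML cells were seeded at 500 per well onto compound and cultured 72 hours (37 °C, 5% CO2). CellTiter-Glo was then added, and after 10 min at room temperature, luminescence gave viability.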

A short description of assay [6]: Quantitative highthroughput screen to assess conditional lethalithy of NOMO1 cells grown in RPMI1640 with untreated serum (RPMI+s) (AID 1963876).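 Also: 100% = DMSO wells and 0% = empty wells without cells; nearly all actives have a fitted effect of over 35% in size.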 Particulars: NOMO1 AML cells in RPMI+serum, CellTiter-Glo viability, 48 h; at 45.8 µM (top of the series). An outline of the steps: (§1)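 Each medium arm—HPLM with 10% dialyzed FBS, or RPMI1640 with 5 mM glucose and 10% untreated or dialyzed FBS—was screened against an 11-point, 3-fold compound titration for 48 h at 37 °C, with CellTiter-Glo luminescence as endpoint.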
Background: Cellular ATP, detected with luciferase, serves as a proxy for viable cell number.

Assay [7] can be described thus: Quantitative highthroughput screen to assess conditional lethalithy of NOMO1 cells grown in RPMI1640 with dialyzed fetal bovine serum (RPMI+ds) (AID 1963877).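 Also: 100% = DMSO control wells and 0% = empty wells; nearly all actives have a fitted effect of over 30% in size.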 Particulars: NOMO1 in RPMI+dialyzed FBS viability, ATP luminescence, 48 h; at 45.8 µM (top of the series). An outline of the steps:
as §1

A short description of assay [8]: Quantitative highthroughput screen to assess conditional lethalithy of NOMO1 cells grown in Human Plasma-Like Medium with dialyzed fetal bovine serum (HPLM+ds) (AID 1963878).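 Also: 100% = DMSO wells and 0% = empty wells on each plate; nearly all actives have a fitted effect of over 35% in size.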 The settings on record: NOMO1 AML cells in HPLM+ds, CellTiter-Glo viability, 48 h; at 45.8 µM (top of the series). The procedure, abridged: as §1
Assay [9] can be described thus: Quantitative highthroughput screen to assess conditional lethalithy of P12 Ichikawa cells grown in Human Plasma-Like Medium with dialyzed fetal bovine serum (HPLM+ds) (AID 1963879). Also: nearly all actives have a fitted effect of over 35% in size. The settings on record: ATP luminescence, 48 h; at 45.8 µM (top of the series).
Assay [10] in a line: Quantitative highthroughput screen to assess conditional lethalithy of P12 Ichikawa cells grown in RPMI1640 with dialyzed fetal bovine serum (RPMI+ds) (AID 1963880). Particulars: ATP luminescence, 48 h; at 45.8 µM (top of the series).
Assay [11] can be described thus: Quantitative highthroughput screen to assess conditional lethalithy of P12 Ichikawa cells grown in RPMI1640 with untreated serum (RPMI+s) (AID 1963881). Particulars: ATP luminescence, 48 h; at 45.8 µM (top of the series).
Assay [12] can be described thus: Quantitative highthroughput screen to assess conditional lethalithy of SEM cells grown in RPMI1640 with dialyzed fetal bovine serum (RPMI+ds) (AID 1963884). The settings on record: SEM B-ALL cells, RPMI+dialyzed FBS, CellTiter-Glo viability, 48 h; at 45.8 µM (top of the series). An outline of the steps:
as §1

As to `CCNC(C)Cc1ccc2c(c1)OCO2` (stereo unspecified), the activity (max response) in [1] was inactive: -7.74%. The Potency entry in assay [2] was “inactive”.
Turning to `NC(=O)Nc1ccc([As](=O)(O)O)cc1`, the Potency result in [3], in assay [4], in assay [5] and in assay [2] was “inactive” in each case. In addition, the activity (max response) in [1] is inactive: 2.87%.
For `N[C@@H](Cc1ccc([N+]([O-])(CCCl)CCCl)cc1)C(=O)O`, the Potency is active: 1.18 µM in assay [4], active: 1.66 µM in assay [5] and active: 11.2 µM in assay [2].
As usually defined, the viability is a per cent measure of how many cells are alive, often set against a control. Turning to `CCn1c(=O)n([C@@H]2CCN(CC3CCCCCCC3)C[C@@H]2CO)c2ccccc21`, the viability in assay [6] was inactive: 95.4%; in assay [7], inactive: 93%; in [8], inactive: 97.9%; in [9], inactive: 94.3%; in [10] it was inactive: 94.5%; in assay [11], inactive: 92.7%. Also, the viability in assay [12] is inactive: 93.4%.
As to `CN(C(=O)Cc1ccc(Cl)c(Cl)c1)[C@H]1CC[C@@]2(CCCO2)C[C@@H]1N1CCCC1`, the Potency entry in assay [4], in [5] and in assay [2] was “inactive” throughout. Moreover, the activity (max response) in [1] is inactive: -7.83%.
`CCn1c(=O)n([C@@H]2CCN(CC3CCCCCCC3)C[C@H]2CO)c2ccccc21`: the Potency in assay [5] is active: 16.6 µM. In [2], the Potency entry was “inactive”.
Take `CN(C)C1(c2ccccc2)CCC2(CC1)OCCc1c2[nH]c2ccc(F)cc12` (stereo unspecified): the Potency entry in assay [3] and in assay [2] was “inactive” throughout. In addition, the activity (max response) in assay [1] is inactive: 1.53%.
As to `CN(C(=O)Cc1ccccc1)[C@H]1CC[C@@]2(CCCO2)C[C@@H]1N1CCCC1`, the Potency in assay [3] is active: 24.5 µM. The Potency entry in [4], in assay [5] and in assay [2] was “inactive” throughout. Also, the activity (max response) in [1] is inactive: -2.95%.
